# Test results as given in ChEMBL document CHEMBL5236635, “Structure-Based Drug Design and Synthesis of Novel N-Aryl-2,4-bithiazole-2-amine CYP1B1-Selective Inhibitors in Overcoming Taxol Resistance in A549 Cells” (J Med Chem, 2022).
# Columns and labels:
# Cytochrome P450 1B1 = target: T1, Cytochrome P450 1B1 (Homo sapiens, UniProt Q16678); test: Inhibition of recombinant human CYP1B1 using 7-ethyl-0-resorufin as substrate incubated for 30 mins in presence of NADPH by EROD assay
# T1 sequence (Q16678 whole entry): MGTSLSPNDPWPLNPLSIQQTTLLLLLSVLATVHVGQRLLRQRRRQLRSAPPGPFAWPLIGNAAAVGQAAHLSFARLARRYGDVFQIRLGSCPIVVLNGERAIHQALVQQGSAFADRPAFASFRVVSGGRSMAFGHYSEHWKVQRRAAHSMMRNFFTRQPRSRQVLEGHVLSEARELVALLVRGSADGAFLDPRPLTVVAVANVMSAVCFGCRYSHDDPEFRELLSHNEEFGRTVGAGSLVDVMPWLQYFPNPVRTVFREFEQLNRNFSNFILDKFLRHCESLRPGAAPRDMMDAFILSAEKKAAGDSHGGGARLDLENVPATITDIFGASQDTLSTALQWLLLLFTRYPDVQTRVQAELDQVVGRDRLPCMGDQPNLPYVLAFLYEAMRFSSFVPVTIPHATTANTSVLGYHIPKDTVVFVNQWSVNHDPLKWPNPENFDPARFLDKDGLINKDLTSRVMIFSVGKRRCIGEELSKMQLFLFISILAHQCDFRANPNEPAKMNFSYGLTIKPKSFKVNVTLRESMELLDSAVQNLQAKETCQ
# Cytochrome P450 1A1 = target: T2, Cytochrome P450 1A1 (Homo sapiens, UniProt P04798); test: Inhibition of recombinant human CYP1A1 using 7-ethyl-0-resorufin as substrate incubated for 30 mins in presence of NADPH by EROD assay
# T2 sequence (P04798 whole entry): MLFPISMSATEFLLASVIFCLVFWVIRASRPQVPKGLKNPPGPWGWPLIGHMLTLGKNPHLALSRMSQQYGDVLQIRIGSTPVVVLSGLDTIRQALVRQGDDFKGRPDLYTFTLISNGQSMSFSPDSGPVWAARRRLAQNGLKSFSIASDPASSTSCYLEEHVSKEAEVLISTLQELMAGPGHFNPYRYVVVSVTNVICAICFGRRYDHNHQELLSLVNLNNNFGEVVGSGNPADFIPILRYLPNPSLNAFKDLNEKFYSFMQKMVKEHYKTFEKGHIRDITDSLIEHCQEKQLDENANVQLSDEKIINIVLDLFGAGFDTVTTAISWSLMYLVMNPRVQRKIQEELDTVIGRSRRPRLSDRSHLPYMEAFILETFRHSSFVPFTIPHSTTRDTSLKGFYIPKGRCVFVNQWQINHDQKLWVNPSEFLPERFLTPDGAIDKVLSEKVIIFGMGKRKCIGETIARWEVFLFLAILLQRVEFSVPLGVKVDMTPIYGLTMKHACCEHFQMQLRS
smiles,measurement,setting,value
COc1cc(/C=C/c2ccc(OC)cc2OC)cc(OC)c1,IC50,Cytochrome P450 1B1,8.23 nM
same,IC50,Cytochrome P450 1A1,209 nM
